Target: aromatase (Homo sapiens, UniProt P11511)

The chains behind the UniProt entries cited, without tags or fusion partners. Where a name states a change or a piece, a line headed by the entry shows the natural chain unless it says otherwise.
UniProt P11511: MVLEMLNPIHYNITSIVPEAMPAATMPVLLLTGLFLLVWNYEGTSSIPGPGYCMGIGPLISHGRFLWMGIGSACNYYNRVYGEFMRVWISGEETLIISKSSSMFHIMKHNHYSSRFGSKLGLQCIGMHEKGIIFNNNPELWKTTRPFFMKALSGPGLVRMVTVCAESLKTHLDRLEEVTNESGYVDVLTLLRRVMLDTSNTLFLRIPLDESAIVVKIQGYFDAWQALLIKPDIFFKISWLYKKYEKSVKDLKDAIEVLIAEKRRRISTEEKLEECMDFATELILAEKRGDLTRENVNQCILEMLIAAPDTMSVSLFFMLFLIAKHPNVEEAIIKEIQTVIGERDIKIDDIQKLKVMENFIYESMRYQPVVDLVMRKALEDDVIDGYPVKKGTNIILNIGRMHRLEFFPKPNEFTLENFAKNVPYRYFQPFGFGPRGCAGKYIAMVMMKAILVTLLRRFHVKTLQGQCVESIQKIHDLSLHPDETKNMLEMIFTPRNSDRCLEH

Compound	% Inhibition of aromatase activity in placental microsomes at 10 μM
NS(=O)(=O)Oc1ccc2c(=O)cc(-c3ccccc3)oc2c1 [Compound 1, Flavone-7-O-sulphamate]	96%
NS(=O)(=O)Oc1ccc2oc(-c3ccccc3)cc(=O)c2c1 [Compound 2, Flavone-6-O-sulphamate]	14%

Source: US7129269B2 (dated 2006)
